Consider one substance from patent publication US10131692B2, “Vasopressin-2 receptor agonists” (Ferring B.V., priority 2013, dated 2018).

The assay deals with human V2 receptor (h V2R) (Homo sapiens (Human), UniProt P30518). The assay can be described thus: hV2 receptor agonist transcriptional reporter gene (luciferase) assay. It is filed as cell-based. Conditions: HEK-293 cells transiently transfected with hV2 receptor, dDAVP internal control. (In general: A reporter such as luciferase makes a cellular process visible.)

As to “[1-deamino, 8-D-arginine]-vasopressin [Compound 42]”, the “% Efficacy hV2-R” value is given as 100%.
